The nature of the series: clinical. Particulars: human, in vivo, 100 mg.

Each structure is given as a SMILES string.

For orientation: Cmax means the peak of the concentration-time curve. `Cc1ccc(C(=O)c2cc(O)c(O)c([N+](=O)[O-])c2)cc1` [TOLCAPONE]: the highest level (Cmax) was 20 µM.

Values taken from ChEMBL document CHEMBL4196168 (J Med Chem, 2018).
